Test results from publication PMC7305985.

Biological target: FLAG-tagged KAP1 ΔRB
Assay: co-IP

How did the percent decrease in binding relative to WT KAP1 turn out when “RPB1 subunit of RNA polymerase II (Pol II), endogenous (from UniProt P24928 1-1970) (natural protein)” was run?
Its percent decrease in binding relative to WT KAP1 is 30%.
